Measured affinities in a library of Ab-91 heavy chain variants

The target is the same throughout: PDVDLGDISGINAS, from the HR2 region of SARS-CoV-2 spike.

Ab-91 is the parent antibody, in scFv form: VL, then a (GGGGS)3 linker, then VH. The light chain is unchanged in all variants.
VL: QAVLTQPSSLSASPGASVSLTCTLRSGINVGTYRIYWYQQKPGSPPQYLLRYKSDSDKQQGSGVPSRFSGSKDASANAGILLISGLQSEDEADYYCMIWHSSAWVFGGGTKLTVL
VH: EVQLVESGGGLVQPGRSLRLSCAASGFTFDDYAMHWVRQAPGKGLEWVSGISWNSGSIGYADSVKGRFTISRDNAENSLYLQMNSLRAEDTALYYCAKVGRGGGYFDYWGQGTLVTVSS

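Phage display of a naive human antibody library on the peptide gave the parent. The library (AAYL51) carries one to three amino acid substitutions per variant, with no insertions or deletions. The scFvs were displayed on barcoded MATa yeast, the peptide on MATalpha yeast. The frequency of each diploid, read from paired DNA barcodes, reflects how well the two displayed proteins bind. Scores were corrected for input abundance and mapped to Kd with protein pairs of known affinity run in the same pool. There are three technical replicates.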

Each variant is given by its three heavy chain CDRs, as the data file delimits them; those of the parent are GFTFDDYAMH, GISWNSGSIGYADSVK, VGRGGGYFDY.
The read-out is the apparent dissociation constant on a log10 scale (nM): the lower, the stronger.
"nd" marks a missing value. The strain was present, yet no cells mated with the target were sequenced in that replicate, which points to weak or no binding.
As a blank, each scFv also met three strains without target: over library AAYL51, 21% of these pairings were detected, typically at 4.54 and seldom below 3.26. Also given: how often the same scFv was detected with the empty control strains, with their mean in brackets.

CDR-H1	CDR-H2	CDR-H3	log10 Kd (nM) by replicate	control signals
GFTADDYAMH	GISWNSGSIGYVDSVK	VNRGGGYFDY	nd nd nd	0 of 9
GFTFDDYAMH	GISWNSGSIGYEDFVK	VGRGGGYFDY	nd nd nd	0 of 9
GFTFDDYAMH	WISWNSGSIGYADSVK	RVRGGGYFDY	nd nd nd	1 of 9 (4.40)
GFTFHDYAMH	GTSWNSGSIGYADIVK	VGRGGGYFDY	2.87 2.78 nd	1 of 9 (4.70)
GHTFDDYYMH	GISWNSGSIGYADSVV	VGRGGGYFDY	5.51 nd nd	2 of 9 (3.90)
GFTFIDYAMH	GISWNSGSIGYADLVK	VGRGGGYWDY	nd nd nd	0 of 9
GFTFDDYAMH	GISWNVGAIGYADSVK	VGRGGGYFDY	nd nd nd	1 of 9 (4.30)
GWTFDDYAMH	GISWNSGWIGYADSVK	VGSGGGYFDY	4.84 nd nd	0 of 9
GFTFDDYASH	VISWTSGSIGYADSVK	VGRGGGYFDY	nd nd nd	1 of 9 (3.97)
GFTFDDYSMH	GISWNSGSCGYADSVK	VGRGGGYFDY	1.04 1.02 0.17	2 of 9 (5.46)
GFAFDKYAMH	GISWNSGSIGYADSVK	VGRGGGYFDY	1.86 1.98 1.56	3 of 9 (4.63)
GFTFDDYAMH	GISWNSRSIGYADSVK	VGRGNGDFDY	3.96 nd nd	1 of 9 (4.21)
GFTFDDYAMH	GVSWNSGSIGYADAVK	VGHGGGYFDY	2.64 2.48 2.46	3 of 9 (4.54)
GFTFDDYAMH	GISWNSGSIGYADSVF	VGRGDGYFDN	1.35 1.32 0.80	6 of 9 (4.68)
GFTFDDYAMN	GISWNSGSIGYADSVK	VGDGGGYFCY	3.70 nd nd	0 of 9
GFTFDDYAMH	GISMNSGSIGYMDSVK	VGRGGGYMDY	4.36 3.34 5.28	1 of 9 (4.15)
GFPFDDYAMH	GISWNSGSIGYADSVN	VPRGGGYFDY	5.68 5.52 5.59	2 of 9 (4.47)
GFTFDDYAMH	GISWNSWSIGYADSVK	SGRGGGDFDY	4.65 5.62 nd	3 of 9 (4.54)
GFTFDDYAMH	GISWNSCSIGYADSVK	DGRGGGYFDK	2.57 3.00 2.42	1 of 9 (3.93)
GFTFDDYAMH	GISWNSGIIGYADSVK	VMRGGGYFAY	4.37 4.32 nd	6 of 9 (5.05)
GFTFDDYAMH	GISWNSGSIGYADSVK	VSRHGGEFDY	5.63 6.93 nd	6 of 9 (4.68)
GTTFDDYAMH	GISWNSGSIIYADSVK	VGRGNGYFDY	nd 3.82 nd	2 of 9 (4.57)
GFTFDPYAMH	GISWNSGSIGYADSVK	VWRGGGYYDY	nd nd nd	0 of 9
GFTFDDYAMH	GISWNSGSMGYADSKK	VGRGGGYFDY	nd nd nd	0 of 9
GFTFDDYAMH	GISWNSGSTGYADSVK	VGSGGGYFDY	0.81 0.77 0.20	3 of 9 (3.78)
GFTFDDYAMH	GISWQSASIGYADSVK	VGRMGGYFDY	0.78 0.76 -0.22	5 of 9 (4.24)
GFTHDDYAMH	GISWNSGSIGYADSVK	VGRGGGEFDY	nd nd nd	0 of 9
GFTFDDVAMH	FISFNSGSIGYADSVK	VGRGGGYFDY	nd nd nd	0 of 9
GFTFDDYEMH	GISWNIGSIGYADSVK	FGRGGGYFDY	3.39 4.68 nd	6 of 9 (4.73)
GFTFDDYAMH	GMSWNSGSIGYTDSVK	VGRGGGYFTY	nd 5.32 nd	1 of 9 (3.83)
GFTFDDYAMH	GISWNSGSIGYWDKVK	VGRGGGLFDY	nd nd nd	3 of 9 (4.38)
GFTFDPDAMH	GISWNSGSIGYADSVK	VGRGGGYFMY	nd 5.42 nd	1 of 9 (5.59)
GFTFDDYAMH	GIPWNSGSIGHADSVK	DGRGGGYFDY	nd nd nd	0 of 9
GFTFDDEAMH	GISWNSGSIGYADSHK	VGRGGGYFRY	nd 4.97 nd	4 of 9 (4.41)
GFTIDDYAMH	GISWNSGSCLYADSVK	VGRGGGYFDY	4.56 nd nd	2 of 9 (4.74)
GFTFDDYALH	GISWNSGSIGYADSVK	VRRMGGYFDY	3.86 4.24 3.65	2 of 9 (3.66)
GVTFDDYAAH	GISWNSGSIFYADSVK	VGRGGGYFDY	4.91 nd nd	3 of 9 (4.20)
EFTFDDYASH	GISMNSGSIGYADSVK	VGRGGGYFDY	nd nd nd	2 of 9 (3.61)
GFTFDDEAMA	GISWNSGSIGYADLVK	VGRGGGYFDY	nd nd nd	0 of 9
GFTTDDCAMH	GISWNSGSICYADSVK	VGRGGGYFDY	3.54 nd nd	3 of 9 (3.59)
GFTFDDYAMH	GIIWNSGSIGYADSVK	VCGGGGYFDY	nd nd nd	0 of 9
GFTMDDYAMN	GISWNSGSIGYADSVK	VGRGDGYFDY	3.99 4.93 4.02	5 of 9 (4.61)
GFTFDDYAMH	GISWNSGSAGYFDSVK	VGRGGGYFDM	2.28 2.25 2.08	0 of 9
GFTCDDYAMH	GISWNSGSIWYAKSVK	VGRGGGYFDY	nd nd nd	0 of 9
LFTFDDYAMH	GISWNSGSIGYADSVK	VGRLGGYFDY	3.89 nd nd	1 of 9 (3.08)

Picked from the list: the 6 lowest averages where every replicate gave a value.

| CDR-H1 | CDR-H2 | CDR-H3 | log10 Kd (nM) by replicate | control signals |
|---|---|---|---|---|
| GFTFDDYAMH | GISWQSASIGYADSVK | VGRMGGYFDY | 0.78 0.76 -0.22 | 5 of 9 (4.24) |
| GFTFDDYAMH | GISWNSGSTGYADSVK | VGSGGGYFDY | 0.81 0.77 0.20 | 3 of 9 (3.78) |
| GFTFDDYSMH | GISWNSGSCGYADSVK | VGRGGGYFDY | 1.04 1.02 0.17 | 2 of 9 (5.46) |
| GFTFDDYAMH | GISWNSGSIGYADSVF | VGRGDGYFDN | 1.35 1.32 0.80 | 6 of 9 (4.68) |
| GFAFDKYAMH | GISWNSGSIGYADSVK | VGRGGGYFDY | 1.86 1.98 1.56 | 3 of 9 (4.63) |
| GFTFDDYAMH | GISWNSGSAGYFDSVK | VGRGGGYFDM | 2.28 2.25 2.08 | 0 of 9 |

Parent in this assay: reference entry 1.86, copy in this library 0.88.

Source: Engelhart et al. 2022 (doi:10.1038/s41597-022-01779-4), MIT Lincoln Laboratory and A-Alpha Bio; data file from the FLAb repository.